# scFv variants of Ab-14 (heavy chain) against a SARS-CoV-2 spike peptide

Data: MIT Lincoln Laboratory AlphaSeq set, Engelhart et al. 2022, doi:10.1038/s41597-022-01779-4, as distributed in FLAb.

All variants were tested on one target, the spike HR2 peptide PDVDLGDISGINAS (SARS-CoV-2).

Each scFv is VH, the linker GGGGSGGGGSGGGGS, VL, as in the parent Ab-14, and differs from it in the CDRs of the heavy chain only.
VH: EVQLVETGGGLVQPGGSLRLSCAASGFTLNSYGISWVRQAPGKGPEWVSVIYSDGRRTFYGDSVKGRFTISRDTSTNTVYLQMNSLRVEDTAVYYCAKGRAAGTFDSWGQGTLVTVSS
VL: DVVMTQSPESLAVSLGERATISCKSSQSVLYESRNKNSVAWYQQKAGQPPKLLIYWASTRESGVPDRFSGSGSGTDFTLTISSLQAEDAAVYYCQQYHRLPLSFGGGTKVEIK

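The starting antibody came from a phage panning campaign against this peptide. In library AAYL49, one, two or three CDR residues were substituted; doubles and triples were drawn at random. The scFvs were displayed on barcoded MATa yeast, the peptide on MATalpha yeast. Mating (16 h, 30 °C) was followed by selection of diploids and sequencing of their barcodes. A regression on co-assayed BCL2-family reference pairs converts the normalised counts of each replicate to an apparent Kd. Each pool was mated in three replicate cultures.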

Sequences are complete VH domains. The read-out is the apparent dissociation constant on a log10 scale (nM): the lower, the stronger. The mean shown is taken over the replicates in which the pair was detected. A pair that was not seen in any replicate is written "no signal"; this usually means weak binding, but a binder can also be missed. Parent in this assay: reference entry 0.65, copy in this library 4.11 (one replicate of three).

| VH | mean, log10 nM | detected | control signals |
|---|---|---|---|
| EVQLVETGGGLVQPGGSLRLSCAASGFTLNSYGISWVRQAPGKGPEWVSVIWHDGRETFYGDSVKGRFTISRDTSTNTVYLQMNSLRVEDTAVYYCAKGRAAGTFDSWGQGTLVTVSS | no signal | 0/3 | 1/9 |
| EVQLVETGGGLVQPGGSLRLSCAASGCTLNSYGISWVRQAPGKGPEWVSVIYSVGRRTFYGDSVKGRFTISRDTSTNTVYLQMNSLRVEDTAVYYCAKGRAAGTFDSWGQGTLVTVSS | no signal | 0/3 | 1/9 |
| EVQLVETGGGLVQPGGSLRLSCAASGFTLSSYGISWVRQAPGKGPEWVSCIYSDGRRTFYGDSVNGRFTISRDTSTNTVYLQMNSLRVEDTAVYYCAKGRAAGTFDSWGQGTLVTVSS | 3.56 | 3/3 | 7/9 |
| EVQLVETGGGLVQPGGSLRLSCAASGFDLNSYNISWVRQAPGKGPEWVSVIYSDGRRKFYGDSVKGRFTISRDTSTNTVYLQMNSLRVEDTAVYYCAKGRAAGTFDSWGQGTLVTVSS | no signal | 0/3 | 0/9 |
| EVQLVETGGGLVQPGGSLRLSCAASRNFLNSYGISWVRQAPGKGPEWVSVIYSDGRRTFYGDSVKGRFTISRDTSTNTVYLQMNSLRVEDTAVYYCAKGRAAGTFDSWGQGTLVTVSS | 3.25 | 3/3 | 3/9 |
| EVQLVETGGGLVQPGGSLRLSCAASGFTLNSYGISWVRQAPGKGPEWVSVIYSDGRETFYGDKVKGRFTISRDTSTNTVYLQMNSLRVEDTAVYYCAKGHAAGTFDSWGQGTLVTVSS | 5.74 | 1/3 | 3/9 |
| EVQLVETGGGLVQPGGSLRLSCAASGFTLNNYGCSWVRQAPGKGPEWVSVIYIDGRRTFYGDSVKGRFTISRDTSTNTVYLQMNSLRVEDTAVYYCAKGRAAGTFDSWGQGTLVTVSS | no signal | 0/3 | 2/9 |
| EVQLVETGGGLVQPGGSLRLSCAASGFTLNSYGISWVRQAPGKGPEWVSVIYSDGTRTFYGHSYKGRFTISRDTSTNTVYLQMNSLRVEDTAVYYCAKGRAAGTFDSWGQGTLVTVSS | 3.08 | 2/3 | 0/9 |
| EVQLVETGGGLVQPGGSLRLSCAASGFDLNSYGISWVRQAPGKGPEWVSVMYSDGRRTFYGDSVKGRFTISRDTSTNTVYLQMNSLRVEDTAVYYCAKGRAAGVFDSWGQGTLVTVSS | 1.72 | 3/3 | 2/9 |
| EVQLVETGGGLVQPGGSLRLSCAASGFTLNSYGISWVRQAPGKGPEWVSIIESDGRRTFYGDSVKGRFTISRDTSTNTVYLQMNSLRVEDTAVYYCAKGRAAGTFDYWGQGTLVTVSS | 4.00 | 2/3 | 2/9 |
| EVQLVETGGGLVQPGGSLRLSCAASGFTLNSHYPSWVRQAPGKGPEWVSVIYSDGRRTFYGDSVKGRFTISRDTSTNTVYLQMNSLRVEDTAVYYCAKGRAAGTFDSWGQGTLVTVSS | no signal | 0/3 | 1/9 |
| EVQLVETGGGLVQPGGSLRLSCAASGFTPNSYGGSWVRQAPGKGPEWVSVIPSDGRRTFYGDSVKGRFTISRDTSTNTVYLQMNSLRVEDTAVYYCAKGRAAGTFDSWGQGTLVTVSS | 4.61 | 1/3 | 2/9 |
| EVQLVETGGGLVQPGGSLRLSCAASGFTLNSYQDSWVRQAPGKGPEWVSVIYSDGRRTFYGDSVKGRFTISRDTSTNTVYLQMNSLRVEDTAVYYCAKQRAAGTFDSWGQGTLVTVSS | no signal | 0/3 | 0/9 |
| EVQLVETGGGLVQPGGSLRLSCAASGFTLNSYGISWVRQAPGKGPEWVSQIYSDGRLTFYGDSVKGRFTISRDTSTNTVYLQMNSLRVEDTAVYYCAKGRAAGQFDSWGQGTLVTVSS | no signal | 0/3 | 0/9 |
| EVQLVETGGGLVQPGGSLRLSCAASGFTLNSYGIMWVRQAPGKGPEWVSVIYSDQRRTFYGLSVKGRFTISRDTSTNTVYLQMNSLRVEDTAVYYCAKGRAAGTFDSWGQGTLVTVSS | no signal | 0/3 | 0/9 |
| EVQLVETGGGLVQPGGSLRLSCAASGFTLNSYGISWVRQAPGKGPEWVSYIYSDGRRTFYGDSVKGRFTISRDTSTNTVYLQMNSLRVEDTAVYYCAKGRASTTFDSWGQGTLVTVSS | 3.18 | 1/3 | 1/9 |
| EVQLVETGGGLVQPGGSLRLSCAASGFTLISYGISWVRQAPGKGPEWVSVYYSDGRRTFYGDSVKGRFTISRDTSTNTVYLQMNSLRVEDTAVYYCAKGRAAFTFDSWGQGTLVTVSS | 4.51 | 1/3 | 4/9 |
| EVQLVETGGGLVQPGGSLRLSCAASGFTLNSYGIRWVRQAPGKGPEWVSVIYSDGRRTFYGQSVKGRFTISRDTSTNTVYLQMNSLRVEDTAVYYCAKGRAAGTFDWWGQGTLVTVSS | 5.10 | 2/3 | 2/9 |
| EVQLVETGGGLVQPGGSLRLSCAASGFTLNGYFISWVRQAPGKGPEWVSVIYSDGERTFYGDSVKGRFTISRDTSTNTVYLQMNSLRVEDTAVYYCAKGRAAGTFDSWGQGTLVTVSS | 4.69 | 2/3 | 1/9 |
| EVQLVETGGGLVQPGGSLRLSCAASGFTTNSYGISWVRQAPGKGPEWVSVIYSDGRATFYGDSVKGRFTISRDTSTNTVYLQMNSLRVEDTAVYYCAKGRAAGTFDRWGQGTLVTVSS | 5.24 | 2/3 | 2/9 |
| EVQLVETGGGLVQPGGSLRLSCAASGFTLNSYGISWVRQAPGKGPEWVSVIYDDGRRTFYGDFDKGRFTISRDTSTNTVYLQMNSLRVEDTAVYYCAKGRAAGTFDSWGQGTLVTVSS | 5.65 | 1/3 | 2/9 |
| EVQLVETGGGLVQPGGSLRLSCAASGFTLNSYGDSWVRQAPGKGPEWVSVIYSDGRDTFYGDSVKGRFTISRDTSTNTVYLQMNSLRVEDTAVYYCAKGRAIGTFDSWGQGTLVTVSS | 4.06 | 2/3 | 3/9 |
| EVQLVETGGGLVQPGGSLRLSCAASGFTLNSYGISWVRQAPGKGPEWVSVIVSDGRRTFYGDSVIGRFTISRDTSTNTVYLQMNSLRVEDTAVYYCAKGRAAGTFLSWGQGTLVTVSS | no signal | 0/3 | 1/9 |
| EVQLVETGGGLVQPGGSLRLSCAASGFTLNSYGISWVRQAPGKGPEWVSVIYNDGRRTAIGDSVKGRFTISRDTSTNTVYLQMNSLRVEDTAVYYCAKGRAAGTFDSWGQGTLVTVSS | no signal | 0/3 | 2/9 |
| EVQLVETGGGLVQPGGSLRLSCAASGFTLNSSGISWVRQAPGKGPEWVSQIYWDGRRTFYGDSVKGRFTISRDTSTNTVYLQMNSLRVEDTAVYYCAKGRAAGTFDSWGQGTLVTVSS | 4.66 | 2/3 | 2/9 |
| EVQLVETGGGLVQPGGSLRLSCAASGFTLKQYGISWVRQAPGKGPEWVSVIYSDGRITFYGDSVKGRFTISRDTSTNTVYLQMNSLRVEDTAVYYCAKGRAAGTFDSWGQGTLVTVSS | 2.91 | 1/3 | 3/9 |

The first 2 variants above that were never detected:

| VH | mean, log10 nM | detected | control signals |
|---|---|---|---|
| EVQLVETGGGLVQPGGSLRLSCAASGFTLNSYGISWVRQAPGKGPEWVSVIWHDGRETFYGDSVKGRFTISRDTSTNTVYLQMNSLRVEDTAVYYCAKGRAAGTFDSWGQGTLVTVSS | no signal | 0/3 | 1/9 |
| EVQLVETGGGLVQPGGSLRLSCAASGCTLNSYGISWVRQAPGKGPEWVSVIYSVGRRTFYGDSVKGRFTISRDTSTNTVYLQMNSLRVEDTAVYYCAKGRAAGTFDSWGQGTLVTVSS | no signal | 0/3 | 1/9 |

Nonspecific signal, from three strains lacking the peptide, appeared in 15% of pairings of library AAYL49, centred on 4.06 (5% of these signals below 2.83); values are not corrected for it. For each scFv, signals with the empty controls are counted beside the result.